Reference: patent US20140315981A1, “STRATEGIES FOR PREVENTION AND/OR TREATMENT OF DISEASES BASED ON CD40 SILENCING” (FUNDACIO INSTITUT D'INVESTIGACIO BIOMEDICA DE BELLVITGE …, priority 2011, published 2014)

Tests used:
Assay type in all cases: in vivo
NZB/W F1 female mice [1] = test: Survival of NZB/W F1 mice with lupus nephritis under treatment; conditions: intraperitoneal treatment from six to nine months of age
Method: Animals NZB/W F1 female mice (Charles River, Spain) were used. The experiment was carried out in accordance with current legislation on animal experiments in the European Union and approved by our institution's Ethics Committee for Animal Research. Mice were housed in a constant temperature room with a 12-hour dark/12-hour light cycle, and were given free access to water and a standard laboratory diet.
(§1) Five-month old NZB/W F1 female mice were divided into the following groups: • CYP (n=8)—mice were treated with intraperitoneal CYP 50 μg/kg every 10 days; • CTLA4-Ig (n=9)—mice were treated with intraperitoneal 50 μg CTLA4-Ig three times a week. • siRNA 1/w (n=9): mice were treated intraperitoneally with 50 μg of murine specific anti CD40 siRNA once a week; • siRNA 2/w P (n=9): mice were treated intraperitoneally with 50 μg of murine specific anti CD40 siRNA twice a week; • Control (n=11)—non-treated animals.
Treatment was given from six to nine old months. Body weight was determined twice a month. Mice were placed in metabolic cages to collect 24-hour urine specimens before treatment, and again at six, seven and eight months. Blood was obtained from the tail vein at the same intervals. At the end of the follow-up, survivor animals were sacrificed and kidney processed for histological studies.
Data are expressed as mean+SE. Overall survival was analyzed by the Kaplan-Meier method. […]

NZB/W F1 female mice [2] = test: Spleen weight and splenocyte B cell populations, murine lupus nephritis; conditions: FIG. 9
Method: as §1

NZB/W F1 female mice [3] = test: Proteinuria and renal function, murine lupus nephritis; conditions: vs. control, FIG. 3
Method: as §1
Treatment was given from six to nine old months. Body weight was determined twice a month. […]
Urinary protein concentration was determined by a commercial kit based on the Ponceau method (BayerDiagnostics, Madrid, Spain). Serum creatinine levels (in milligrams per decilitre) were determined by Jaffés method on an autoanalyzer (Beckman Instruments, Palo Alto, Calif.) at the end of the follow-up. Anti-DNA antibodies levels of anti-DNA antibodies were measured before treatment, and subsequently each month and at sacrifice, using a commercially available ELISA kit (Alpha Diagnostic International, San Antonio, Tex., USA) according to manufacturer's instructions (serum diluted 1:100). […] Kits contain positive and negative controls, and anti-DNA antibodies are estimated in a semi-quantitative way according to the optical density (o.d. 450).

CTLA4-Ig: soluble cytotoxic T-lymphocyte antigen 4 (CTLA-4)-IgG1 construct (Abatacept), costimulatory blocker
Cumulative survival analyzed by the Kaplan-Meier method (NZB/W F1 female mice [1]): 100%
proportion of activated B cells in splenocytes (NZB/W F1 female mice [2]): reduced
proteinuria (NZB/W F1 female mice [3]): intermediate
